Laboratory results taken from patent EP0490410B1, “TXA2 Receptor and gene encoding the same” (SHIONOGI SEIYAKU KABUSHIKI KAISHA, priority 1990, dated 1992).

Amino acid sequences for entries named in this document (tags omitted). A change or cut given only in a name is not applied to a line headed by its entry.
UniProt P21731, whole entry: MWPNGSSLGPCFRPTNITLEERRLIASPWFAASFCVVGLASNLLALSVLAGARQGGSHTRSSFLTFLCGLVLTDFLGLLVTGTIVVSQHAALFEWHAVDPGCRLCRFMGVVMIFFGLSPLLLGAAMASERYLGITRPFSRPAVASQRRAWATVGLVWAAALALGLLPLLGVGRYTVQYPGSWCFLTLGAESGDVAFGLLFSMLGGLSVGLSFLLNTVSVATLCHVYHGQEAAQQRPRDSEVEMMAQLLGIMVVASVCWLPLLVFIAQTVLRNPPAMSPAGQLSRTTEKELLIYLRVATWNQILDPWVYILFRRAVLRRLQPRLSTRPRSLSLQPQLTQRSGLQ

Target: human TXA2 receptor encoded by placenta cDNA clone HPL (SEQ ID NO: 1), expressed in COS-7 cells (Homo sapiens, UniProt P21731)
Test: [3H]S-145 saturation binding to membranes of transfected COS-7 cells
Conditions: read-out: dissociation constant, Kd, saturable binding, 20 mM Na-Mes, pH 6.4, 5 mM EDTA, tested as the radiolabelled form, tested form: tritium-labelled (24 Ci/mmol), label pos

- Kd: 1.2 nM
Structure (SMILES): O=C(O)CCC/C=C\CC1C2CCC(C2)C1NS(=O)(=O)c1ccccc1 (stereo not shown)
